Values quoted from earlier work, collected in PMC4490394 (Scientific Reports, 2015).

Test system: testosterone
Conditions: plasma and bone marrow ref 36; cited from earlier work

Compound: CNC(=O)c1ccc(N2C(=S)N(c3ccc(C#N)c(C(F)(F)F)c3)C(=O)C2(C)C)cc1F [Enzalutamide, enzalutamide, reference compound]
- testosterone levels in treated CRPC patients: increased levels of testosterone in plasma and bone marrow
